# Laboratory results published in patent publication US20220041681A1 (MEDIMMUNE LIMITED, priority 2016, published 2022).
# Experiments:
# [1] = tested on: overweight or obese subjects with type 2 diabetes mellitus (T2DM); assay: Phase 1/2 multiple-ascending dose study Part I (Cohorts 1-4)
# [2] = tested on: overweight or obese subjects with type 2 diabetes mellitus (T2DM); assay: Multiple-ascending dose study Part II (Cohorts 5 and 6); type: in vivo, human
# Procedure: A randomized, double-blind, multiple-ascending dose study is performed. This study consists of 2 cohorts: cohort 5 and cohort 6. […] Cohorts 5 and 6 have approximately 32 subjects total and are run in parallel.
# The study consists of an inpatient up-titration evaluation period beginning on Day 3 for both Cohorts 5 and 6 and an outpatient follow-up period. The first 4 days and the final day of dosing at 300 μg are inpatient.
# Subjects are admitted to the clinic as described in Example 5 for Cohorts 1-4. […] Subjects have a second inpatient period for the initiation of the 300 μg dose ending on the fourth day at that dose followed by at-home self administration.
# Additional time points include before commencing the 300 μg dose (Day 16 for Cohort 5 and Day 11 for Cohort 6), and at the end of dosing (Day 22 for Cohort 5 and Day 17 for Cohort 6). The MMT are performed as described in Example 5.
smiles,measurement,setting,value
CCCCCCCCCCCCCCCC(=O)N[C@@H](CCC(=O)NCCCC[C@H](NC(=O)[C@H](CC(=O)O)NC(=O)[C@H](CO)NC(=O)C(NC(=O)[C@H](Cc1ccccc1)NC(=O)C(NC(=O)CNC(=O)[C@H](CCC(N)=O)NC(=O)[C@H](CO)NC(=O)[C@@H](N)Cc1cnc[nH]1)[C@@H](C)O)[C@@H](C)O)C(=O)N[C@@H](CO)C(=O)N[C@@H](CCC(=O)O)C(=O)N[C@@H](Cc1ccc(O)cc1)C(=O)N[C@@H](CC(C)C)C(=O)N[C@@H](CC(=O)O)C(=O)N[C@@H](CO)C(=O)N[C@@H](CCC(=O)O)C(=O)N[C@@H](CCCNC(=N)N)C(=O)N[C@@H](C)C(=O)N[C@@H](CCCNC(=N)N)C(=O)N[C@@H](CC(=O)O)C(=O)N[C@@H](Cc1ccccc1)C(=O)N[C@H](C(=O)N[C@@H](C)C(=O)N[C@@H](Cc1c[nH]c2ccccc12)C(=O)N[C@@H](CC(C)C)C(=O)N[C@@H](CCC(=O)O)C(=O)N[C@@H](C)C(=O)NCC(=O)NCC(=O)O)C(C)C)C(=O)O (some centres unmarked) [Peptide G933],patients with decreased appetite,"[1]; Cohort 3, six patients",85.7%
same,increase in heart rate,"[1]; Cohort 4, Day 13",12.8 bpm
same,patients with nausea,"[1]; Cohorts 1-3, 6 patients",31.6%
same,patients with cardiac adverse events,"[1]; Cohorts 1-3, seven patients",36.8%
same,patients with gastrointestinal (GI) adverse events,"[1]; Cohorts 1-3, thirteen patients",68.4%
same,patients reporting nausea,"[2]; Cohort 5, 3 patients",27.3%
same,patients reporting vomiting,"[2]; Cohort 5, 3 patients",27.3%
same,patients reporting nausea,"[2]; Cohort 6, 5 patients",41.7%
